Experimental findings from PMC9235857 (Molecular Cell, 2022) are described below.

B1: CENP-N (natural protein)
chain: not shown
B2: CENP-L (natural protein, human)
chain: MDSYSAPESTPSASSRPEDYFIGATPLQKRLESVRKQSSFILTPPRRKIPQCSQLQEDVDPQKVAFLLHKQWTLYSLTPLYKFSYSNLKEYSRLLNAFIVAEKQKGLAVEVGEDFNIKVIFSTLLGMKGTQRDPEAFLVQIVSKSQLPSENREGKVLWTGWFCCVFGDSLLETVSEDFTCLPLFLANGAESNTAIIGTWFQKTFDCYFSPLAINAFNLSWMAAMWTACKMDHYVATTEFLWSVPCSPQSLDISFAIHPEDAKALWDSVHKTPGEVTQEEVDLFMDCLYSHFHRHFKIHLSATRLVRVSTSVASAHTDGKIKILCHKYLIGVLAYLTELAIFQIE

Test in all cases: cryo-EM structure
The target of one experiment is CENP-C^[…] (human).
The target of the experiment “CENP-L” is B2.
The experiment “CENP-N” deals with B1.

Consider B1, for which the binding result in the experiment with CENP-C^[…] is “binds”.

With B2, in the experiment with CENP-C^[…], the binding result is on record as “binds”.

B3: CENP-M (natural protein, human, UniProt Q9NSP4 1-180, looked up)
chain: MSVLRPLDKLPGLNTATILLVGTEDALLQQLADSMLKEDCASELKVHLAKSLPLPSSVNRPRIDLIVFVVNLHSKYSLQNTEESLRHVDASFFLGKVCFLATGAGRESHCSIHRHTVVKLAHTYQSPLLYCDLEVEGFRATMAQRLVRVLQICAGHVPGVSALNLLSLLRSSEGPSLEDL
As to B3, the binding result with CENP-L and with CENP-N was “binds” throughout.
